Assay results reported in US20250051275A1, “PYRROLE DERIVATIVE OR […] OR SITOLOGICALLY ACCEPTABLE SALTS THEREOF, AND COMPOSITION FOR PREVENTION, AMELIORATION OR TREATMENT OF GASTROINTESTINAL DISORDERS COMPRISING SAME AS ACTIVE INGREDIENT” (HANA PHARM CO., LTD., priority 2021, published 2025).

Protein sequences, listed by entry. Tags and fused reporters are not part of them. Residues count along the entry.
UniProt P19156, 2-1034 limits assumed: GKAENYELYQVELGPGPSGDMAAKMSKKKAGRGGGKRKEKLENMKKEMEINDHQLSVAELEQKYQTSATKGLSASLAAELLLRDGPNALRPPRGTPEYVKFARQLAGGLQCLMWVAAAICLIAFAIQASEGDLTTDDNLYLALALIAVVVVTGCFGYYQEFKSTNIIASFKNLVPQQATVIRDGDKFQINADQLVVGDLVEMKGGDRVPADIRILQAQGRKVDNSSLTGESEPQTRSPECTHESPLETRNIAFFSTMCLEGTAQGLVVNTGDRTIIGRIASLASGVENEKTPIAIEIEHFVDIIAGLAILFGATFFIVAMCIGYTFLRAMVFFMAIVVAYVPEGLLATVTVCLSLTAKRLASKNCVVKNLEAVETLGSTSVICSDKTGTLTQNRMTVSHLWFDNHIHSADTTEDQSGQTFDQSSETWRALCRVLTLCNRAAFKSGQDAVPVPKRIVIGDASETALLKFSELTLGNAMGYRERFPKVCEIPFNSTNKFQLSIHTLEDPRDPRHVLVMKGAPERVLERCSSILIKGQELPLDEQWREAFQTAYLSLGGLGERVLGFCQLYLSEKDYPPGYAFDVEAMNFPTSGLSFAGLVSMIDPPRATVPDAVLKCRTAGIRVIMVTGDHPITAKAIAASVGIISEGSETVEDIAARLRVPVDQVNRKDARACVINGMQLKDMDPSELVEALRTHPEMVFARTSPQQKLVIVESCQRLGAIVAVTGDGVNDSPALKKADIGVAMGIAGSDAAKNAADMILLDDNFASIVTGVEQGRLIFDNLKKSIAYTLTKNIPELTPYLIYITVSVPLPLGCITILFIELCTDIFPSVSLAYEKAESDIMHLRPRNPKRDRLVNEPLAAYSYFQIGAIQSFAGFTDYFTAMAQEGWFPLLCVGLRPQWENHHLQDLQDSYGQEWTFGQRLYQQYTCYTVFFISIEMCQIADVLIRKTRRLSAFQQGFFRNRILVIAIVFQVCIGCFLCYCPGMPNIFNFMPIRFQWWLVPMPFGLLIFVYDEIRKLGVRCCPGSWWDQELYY
UniProt P18434, whole entry partner: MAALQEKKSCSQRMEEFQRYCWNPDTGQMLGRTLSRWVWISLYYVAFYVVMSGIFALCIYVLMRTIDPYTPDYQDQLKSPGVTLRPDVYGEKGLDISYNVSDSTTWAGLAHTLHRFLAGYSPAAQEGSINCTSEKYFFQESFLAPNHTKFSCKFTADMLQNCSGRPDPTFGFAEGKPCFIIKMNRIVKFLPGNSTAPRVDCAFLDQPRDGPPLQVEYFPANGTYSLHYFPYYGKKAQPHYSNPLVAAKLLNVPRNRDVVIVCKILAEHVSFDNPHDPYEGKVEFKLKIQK

Key:
[1] = biological target: proton pump (H+/K+-ATPase) (Sus scrofa (Pig), UniProt P19156); assay: Inhibitory activity on proton pump (H+/K+-ATPase) activity; details: read-out: Proton pump inhibitory activity (IC50, nM), class symbol; porcine gastric mucosal microsomes, 5 mM KCl, pH 6.4
[2] = Pharmacokinetic profile in beagles, single oral dose; type: in vivo, beagle dogs; details: beagle, oral single dose 0.2 mg/kg, mean n=3
pH of gastric juice = assay: Pharmacodynamic profile (pH of gastric juice) in beagles after histamine; details: beagle, oral 0.2 mg/kg

Work on CNCc1cc(-c2ccccc2F)n(S(=O)(=O)c2cccnc2)c1 yielded an IC50 [1] of under 100 nM, an AUClast [2] of 85.5 ng·h/mL and a Cmax [2] of 36.4 ng/mL. The Tmax [2] was 1.0 h, the “Average pH of gastric juice” value (pH of gastric juice; 0 h) was 6.8 and the “Average pH of gastric juice” value (pH of gastric juice; 2.5 h) was 4.8. The “Average pH of gastric juice” value (pH of gastric juice; 4.5 h) was 6.3, the “Average pH of gastric juice” value (pH of gastric juice; 7.5 h) was 4.8 and the “Average pH of gastric juice” value (pH of gastric juice; 25.5 h) was 2.3. For the same molecule, the “Average pH of gastric juice” value (pH of gastric juice; 49.5 h) was 3.0.
